{"source": "patent US20100256147A1", "about": "“BIARYL ACETAMIDE DERIVATIVES AS MODULATORS OF THE KINASE CASCADE FOR THE TREATMENT OF HEARING LOSS, OSTEOPOROSIS AND CELL PROLIFERATION DISORDERS” (priority 2007, published 2010)", "tested_on": "WRL-68", "test": "MTT growth inhibition, WRL-68", "type": "cell-based", "conditions": "Homo sapiens, WRL68, 78 h", "protocol": "Samples of the test compounds are formulated in 100% DMSO to obtain 20 mM stock solutions; stored @ 4° C. The IC50s and IC80s are determined as described below. Huh7, WRL-68, PLC/PRF/5, Hep 3B, and Hep G2 human cancer lines are routinely cultured and maintained in a basal medium containing 2% FBS @ 37° C., 5% CO2. Cells are seeded @ 4.0×10^3/190 μl and 8.0×10^3/190 μl per well of a 96-well plate. The assay medium is basal medium/1.5% FBS. […] The test article dilutions are prepared as follows: 20 mM stock solution samples are diluted serially in basal medium/1.5% FBS using 1:3 dilutions, yielding 20× concentrations; 131 μM to 0.24 nM range. 10 μL of 20× dilutions are added to the appropriate wells (n=3) containing 190 μL cancer cell line; 6561 nM to 0.012 nM range of final concentrations. Vehicle control contains cells, no sample. Medium control contains cells, no sample, 0.03% DMSO (highest DMSO concentration present in samples). The treated cells are incubated for 72 hours at 37° C., 5% CO2. On day 3, 10 μL MTT (5 mg/mL) are added to each well. Cells are incubated in the presence of MTT for 4 hours @ 37° C., 5% CO2. 90 μL 10% SDS(+HCl) is added to each well to lyse cells and solubilize formazan. […] OD570 measurements are taken, e.g., using BioTek Synergy HT multiplatform microplate reader. Growth inhibition curves IC50s and IC80s are determined using GraphPad Prism 5 statistical software.", "data": [{"smiles": "Cc1nc(Nc2ncc(C(=O)Nc3c(C)cccc3Cl)s2)cc(N2CCN(CCO)CC2)n1", "note": "[Dasatinib]", "values": [{"measurement": "IC50", "result": 5.65, "unit": "µM"}]}]}
